Earlier results on one compound are cited in patent US5487990A (The General Hospital Corporation, priority 1992, dated 1996).

Protein sequences, listed by entry. Tags and fused reporters are not part of them. Lines headed by an entry give the natural chain unless they say otherwise; changes in a name come on top.
UniProt Q99NB7: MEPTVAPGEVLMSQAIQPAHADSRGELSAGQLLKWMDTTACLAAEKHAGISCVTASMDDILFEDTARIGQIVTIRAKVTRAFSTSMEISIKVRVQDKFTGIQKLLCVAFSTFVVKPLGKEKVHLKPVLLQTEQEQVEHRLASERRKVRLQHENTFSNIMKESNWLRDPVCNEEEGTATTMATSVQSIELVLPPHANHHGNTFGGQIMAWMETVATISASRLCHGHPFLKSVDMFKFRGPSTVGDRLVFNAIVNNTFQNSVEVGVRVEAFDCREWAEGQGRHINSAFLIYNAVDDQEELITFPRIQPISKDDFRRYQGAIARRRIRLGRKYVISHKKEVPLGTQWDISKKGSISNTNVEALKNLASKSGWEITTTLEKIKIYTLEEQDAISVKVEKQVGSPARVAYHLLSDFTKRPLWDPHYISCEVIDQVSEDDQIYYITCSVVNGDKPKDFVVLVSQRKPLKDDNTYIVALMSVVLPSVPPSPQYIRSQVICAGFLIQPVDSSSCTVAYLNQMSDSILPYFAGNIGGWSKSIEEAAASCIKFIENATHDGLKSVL

The target of the data set is T1, soluble cytosolic acetyl-CoA hydrolase found in rat liver (Rattus norvegicus, UniProt Q99NB7).
T1 construct: host or cells: rat liver cytoplasm (Prass et al. 1980; Soling et al. 1985)
To be noted: rat liver cytoplasmic, cold-labile enzyme; cited from earlier work.

Consider `Nc1ncnc2c1ncn2[C@@H]1O[C@H](COP(=O)(O)OP(=O)(O)OP(=O)(O)O)[C@@H](O)[C@H]1O` [ATP], for which the “effect on enzyme (in words)” value is reported as “activated”.
